Test results reported in PubChem BioAssay AID1565 (Sanford-Burnham Center for Chemical Genomics, 2009).
Only a part is listed here, and it is no random draw. Active and inactive are the calls of the source. Rule as the data show it: active = inhibition above about 60%; inactive = the rest.

Chains of the proteins cited; added tags and fusions are not shown.
UniProt Q8TCT1, whole entry: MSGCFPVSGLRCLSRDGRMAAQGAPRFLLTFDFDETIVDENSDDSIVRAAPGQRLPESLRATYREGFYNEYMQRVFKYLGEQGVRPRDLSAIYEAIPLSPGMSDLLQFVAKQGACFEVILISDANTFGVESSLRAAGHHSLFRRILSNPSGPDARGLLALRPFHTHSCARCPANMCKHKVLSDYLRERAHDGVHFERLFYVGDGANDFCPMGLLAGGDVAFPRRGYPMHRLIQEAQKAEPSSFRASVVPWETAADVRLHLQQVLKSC

Each molecule was assayed against Phosphoethanolamine/phosphocholine phosphatase (Homo sapiens) (UniProt Q8TCT1) (assay: PubChem AID 1565). Conditions: recombinant PHOSPHO1, absorbance phosphatase assay; at 13.3 µM; stronger effect = higher value.

Q: How did the inhibition turn out when `N#Cc1ccc(C(=O)NCC2(N3CCCCC3)CCCCC2)cc1` was run?
A: Its inhibition is inactive: 35.9%.

Q: With `CC(C)(C)OC(=O)N1CCC(N(C(=O)c2ccccc2)c2ccc(Cl)cc2)CC1` as the molecule, how does the inhibition read?
A: The inhibition was inactive: 29.2%.

Q: How did the inhibition turn out when `CN(C)C1(CNC(=O)c2cccc(C#N)c2)CCCCC1` was run?
A: The inhibition was inactive: 44.2%.

Q: Which inhibition does the source give for `c1ccc(CN2CCC(Nc3ccccc3)CC2)cc1` here?
A: The inhibition was inactive: -6.8%.

Q: For `CCCN1CCC(Nc2cc(OC)cc(OC)c2)CC1`, which inhibition is on record?
A: The inhibition was inactive: 23.9%.

Q: `COc1ccc(C(=O)NCC2(N3CCOCC3)CCCCC2)cc1OC` was tested. Which inhibition did it give?
A: Its inhibition is inactive: 9.1%.

Q: `O=C(OC1CN2CCC1CC2)C1c2ccccc2C=Cc2ccccc21` (stereo unspecified) was tested. Which inhibition did it give?
A: The inhibition was inactive: 30.8%.

Q: For `CCOC(=O)N1CCC(Nc2ccc(C)cc2)CC1`, which inhibition is on record?
A: The inhibition was inactive: 23.9%.

Q: With `N/C(=N\O)c1c(N)no[n+]1[O-]` as the molecule, how does the inhibition read?
A: The inhibition was inactive: 6.8%.

Q: `CC(C)(C)OC(=O)N1CCC(Nc2ccccc2)CC1` was tested. Which inhibition did it give?
A: The inhibition was inactive: 11.4%.

Q: With `O=C(O)C1(Nc2ccccc2)CCN(Cc2ccccc2)CC1` as the molecule, how does the inhibition read?
A: Its inhibition is inactive: 39.9%.

Q: `CCCOc1ccc(C(=O)NCC2(N(C)C)CCCCC2)cc1` was tested. Which inhibition did it give?
A: Its inhibition is inactive: 19.7%.

Q: `CCOc1ncccc1C(=O)NCC1(N2CCOCC2)CCCCC1` was tested. Which inhibition did it give?
A: Its inhibition is inactive: -38.9%.

Q: How did the inhibition turn out when `CN1CCC(Nc2ccc(F)c(Cl)c2)CC1` was run?
A: The inhibition was inactive: -1.3%.

Q: For `CCCOc1ccc(C)cc1CN(CCCl)CCCl`, which inhibition is on record?
A: The inhibition was inactive: 36.8%.

Q: `COc1cc(OC)cc(C(=O)NCC2(N3CCOCC3)CCCCC2)c1` was tested. Which inhibition did it give?
A: Its inhibition is inactive: 24.4%.

Q: With `COc1cccc(C(=O)N(c2cc(C)cc(C)c2)C2CCN(C(=O)OC(C)(C)C)CC2)c1` as the molecule, how does the inhibition read?
A: The inhibition was inactive: 11.4%.

Q: For `CCC(CO)(C(=O)OC1CN2CCC1CC2)c1ccccc1` (stereo unspecified), which inhibition is on record?
A: Its inhibition is inactive: -0.8%.

Q: `Fc1ccccc1NC1CCN(Cc2ccccc2)CC1` was tested. Which inhibition did it give?
A: The inhibition was inactive: 9.2%.

Q: `COc1cc(OC)cc(C(=O)NCC2(N3CCCCC3)CCCCC2)c1` was tested. Which inhibition did it give?
A: Its inhibition is inactive: 14.2%.

Q: How did the inhibition turn out when `CN(C)c1ccc(C(=O)NCC2(N3CCCCC3)CCCCC2)cc1` was run?
A: The inhibition was inactive: 8.4%.

Q: For `CCN1CCC(Nc2cccc(F)c2)CC1`, which inhibition is on record?
A: Its inhibition is inactive: 4.7%.

Q: How did the inhibition turn out when `O=C(NCC1(N2CCCCC2)CCCCC1)c1ccc(F)cc1` was run?
A: Its inhibition is inactive: 40.9%.

Q: For `COc1ccc(NC2CCN(CCc3ccccc3)CC2)c(OC)c1`, which inhibition is on record?
A: The inhibition was inactive: 16%.

Q: Which inhibition does the source give for `CCOC(=O)N1CCC(Nc2ccc(F)cc2)CC1` here?
A: Its inhibition is inactive: 25.3%.

Q: `CCOc1ccc(C)cc1CN(CCCl)CCCl` was tested. Which inhibition did it give?
A: The inhibition was inactive: 20.3%.

Q: Which inhibition does the source give for `COc1cc(C(=O)NCC2(N(C)C)CCCCC2)ccc1OC(F)F` here?
A: Its inhibition is inactive: 33%.

Q: `Cc1ccc(OCC(C)C)c(CN(CCCl)CCCl)c1` was tested. Which inhibition did it give?
A: The inhibition was inactive: 36.8%.

Q: With `CSc1ccccc1C(=O)NCC1(N2CCCCC2)CCCCC1` as the molecule, how does the inhibition read?
A: Its inhibition is inactive: 31%.

Q: How did the inhibition turn out when `COc1ccc(C(=O)NCC2(N3CCCCC3)CCCCC2)cc1` was run?
A: The inhibition was inactive: 24%.

Q: Which inhibition does the source give for `CC(C)(C)OC(=O)N1CCC(N(C(=O)c2ccccc2)c2ccc(F)cc2)CC1` here?
A: The inhibition was inactive: 2.8%.

Q: `COc1ccc(C(=O)NCC2(N3CCCCC3)CCCCC2)c(OC)c1OC` was tested. Which inhibition did it give?
A: Its inhibition is inactive: 34.2%.

Q: `O=C(NCC1(N2CCCCC2)CCCCC1)c1ccc(=O)[nH]c1` was tested. Which inhibition did it give?
A: Its inhibition is active: 62.4%.

Q: How did the inhibition turn out when `O=C(OC1CN2CCC1CC2)C1c2ccccc2Oc2ccccc21` (stereo unspecified) was run?
A: The inhibition was inactive: 1%.

Q: How did the inhibition turn out when `N#CC1(Nc2ccccc2)CCN(Cc2ccccc2)CC1` was run?
A: The inhibition was inactive: -14%.

Q: How did the inhibition turn out when `CCOC(=O)N1CCC(Nc2ccc(OC)cc2)CC1` was run?
A: The inhibition was inactive: -19.1%.

Q: `Cc1cc(C)cc(N(C(=O)c2ccccc2)C2CCN(C(=O)OC(C)(C)C)CC2)c1` was tested. Which inhibition did it give?
A: Its inhibition is inactive: 41.9%.

Q: Which inhibition does the source give for `O=C(NCC1(N2CCOCC2)CCCCC1)c1cc2ccccc2o1` here?
A: The inhibition was inactive: -42.5%.

Q: With `COc1cc(OC)c(C(=O)NCC2(N(C)C)CCCCC2)cc1OC` as the molecule, how does the inhibition read?
A: Its inhibition is inactive: 41.5%.

Q: Which inhibition does the source give for `CC(C)c1ccc(NC2CCN(C(=O)OC(C)(C)C)CC2)cc1` here?
A: Its inhibition is inactive: 23.6%.

Q: For `COc1ccc(CN(CCCl)CCCl)cc1Cl`, which inhibition is on record?
A: Its inhibition is inactive: 36.6%.

Q: Which inhibition does the source give for `CN(C)c1cccc(C(=O)NCC2(N3CCCCC3)CCCCC2)c1` here?
A: Its inhibition is inactive: 28.5%.

Q: How did the inhibition turn out when `CCCOc1ccc(C(=O)NCC2(N(C)C)CCCCC2)cc1OC` was run?
A: The inhibition was inactive: 33%.

Q: For `N#CC1(Nc2ccccc2)CCN(CCc2ccccc2)CC1`, which inhibition is on record?
A: The inhibition was inactive: 13.7%.

Q: For `O=C(NCC1(N2CCCCC2)CCCCC1)c1cccc([N+](=O)[O-])c1`, which inhibition is on record?
A: The inhibition was inactive: -61.5%.

Q: `O=C(NCC1(N2CCCCC2)CCCCC1)c1ccc(OC(F)F)cc1` was tested. Which inhibition did it give?
A: Its inhibition is inactive: 23.9%.

Q: Which inhibition does the source give for `COc1cc(C(=O)NCC2(N3CCCCC3)CCCCC2)ccc1OC(F)F` here?
A: Its inhibition is inactive: 2.2%.

Q: For `O=C(NCC1(N2CCOCC2)CCCCC1)c1cc(=O)[nH]c2ccccc12`, which inhibition is on record?
A: The inhibition was inactive: -9.3%.

Q: With `CN1CCN(CCOC(=O)C(O)(c2ccccc2)c2ccccc2)CC1` as the molecule, how does the inhibition read?
A: The inhibition was inactive: -0.5%.

Q: For `COc1ccc(NC2CCN(C(=O)OC(C)(C)C)CC2)cc1`, which inhibition is on record?
A: Its inhibition is inactive: -74.1%.

Q: Which inhibition does the source give for `O=C(NCC1(N2CCCCC2)CCCCC1)c1cccc(C(F)(F)F)c1` here?
A: Its inhibition is inactive: 43.3%.
